Only a part is listed here, and it is no random draw. Some tests of the compounds listed are not included; inactive here does not mean inactive elsewhere. Calls of active or inactive are those of the source.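 How the source made its calls: active means drop in membrane potential signal beyond 5 SD of the control wells in both duplicate plates; inactive means the rest.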
System: TRPC4 (transient receptor potential cation channel C4), mouse
Experiment: DAMGO-evoked mouse TRPC4 response blockade – cell-based, second screen, HEK293 TRPC4/mu-opioid, membrane potential dye, selectivity assay for TRPC6 modulator project, confirmation (AID 488928);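 further: TRPC4 counter screen for TRPC6 hits run under conditions tuned for TRPC6 not TRPC4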
Conditions: membrane potential dye fluorescence, at 10 µM, stimulated with maximal-effect DAMGO

Q: CCN(CC)CC(C)C(C)OC(=O)C(O)(c1ccccc1)c1ccccc1 (configuration not stated) was tested. Which outcome did it give?
A: Its outcome is “inactive”.

Q: CN1[C@@H]2CC[C@H]1CC(OC(=O)C(O)(c1ccccc1)c1ccccc1)C2 (some centres not stated) was tested. Which outcome did it give?
A: Its outcome is “inactive”.

Reference: PubChem BioAssay AID488928 (Johns Hopkins Ion Channel Center, 2010)
